Experimental data taken from patent publication US20080153845A1, “TRPV1 ANTAGONISTS AND USES THEREOF” (REDPOINT BIO CORPORATION, priority 2006, published 2008).

Amino acid sequences for entries named in this document (tags omitted).
UniProt Q8NER1, whole entry: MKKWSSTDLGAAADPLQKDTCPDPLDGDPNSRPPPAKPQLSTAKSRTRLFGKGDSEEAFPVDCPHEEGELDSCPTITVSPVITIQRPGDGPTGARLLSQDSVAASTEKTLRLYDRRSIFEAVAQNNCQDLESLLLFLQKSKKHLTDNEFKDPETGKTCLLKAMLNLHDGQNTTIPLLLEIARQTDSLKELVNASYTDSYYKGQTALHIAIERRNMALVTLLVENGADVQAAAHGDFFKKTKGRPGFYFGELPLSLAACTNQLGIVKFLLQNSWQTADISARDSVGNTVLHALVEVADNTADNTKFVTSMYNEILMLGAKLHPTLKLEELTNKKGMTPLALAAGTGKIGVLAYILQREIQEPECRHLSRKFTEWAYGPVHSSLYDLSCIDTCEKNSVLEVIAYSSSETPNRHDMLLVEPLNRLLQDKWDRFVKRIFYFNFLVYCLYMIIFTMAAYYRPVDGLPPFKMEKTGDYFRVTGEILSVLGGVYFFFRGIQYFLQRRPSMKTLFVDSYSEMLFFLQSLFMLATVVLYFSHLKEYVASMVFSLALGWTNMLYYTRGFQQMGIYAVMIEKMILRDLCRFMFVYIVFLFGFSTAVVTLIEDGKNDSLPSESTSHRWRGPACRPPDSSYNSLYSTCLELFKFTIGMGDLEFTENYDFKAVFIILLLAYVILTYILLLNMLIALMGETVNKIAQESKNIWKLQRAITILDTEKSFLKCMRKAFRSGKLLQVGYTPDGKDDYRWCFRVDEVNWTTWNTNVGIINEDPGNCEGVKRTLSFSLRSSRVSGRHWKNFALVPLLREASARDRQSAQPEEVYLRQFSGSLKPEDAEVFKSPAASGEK

Molecular target: human TRPV1 (Homo sapiens, UniProt Q8NER1)
Assay: cell-based fluorescence assay of membrane depolarization by readily soluble drugs in HEK293 cells
Set-up: expressed in transfected cells; host or cells: HEK293 cells
Details: 100 μM drug; HEK293 untransfected (Parental), human TRPA1 or human TRPV1 transfected; FIG. 1
Experimental: A cell-based fluorescence assay was performed using HEK293 cells to determine
TRPV1 selectivity of readily soluble drugs. […] Parental cells and TRPA1 cells served as negative controls. All cells were incubated with 100 μM of readily soluble drugs. Cell membrane depolarization was measured in relative fluorescence units (RFU) through a coupled fluorescence emission scheme.

Compound: COc1ccc2c(c1)[C@]13CCCC[C@@H]1[C@H](C2)N(C)CC3 [dextromethorphan]
- cell membrane depolarization (RFU) in TRPV1 cells compared to Parental and TRPA1 cells: greater membrane depolarization in TRPV1 cells
